Data on one compound can be found in paper PMC2943038 (Chemical communications (Cambridge, England), 2010).

Sequences of proteins named here, by UniProt entry; tags and fusion partners are left off.
UniProt Q9Y2J8, whole entry: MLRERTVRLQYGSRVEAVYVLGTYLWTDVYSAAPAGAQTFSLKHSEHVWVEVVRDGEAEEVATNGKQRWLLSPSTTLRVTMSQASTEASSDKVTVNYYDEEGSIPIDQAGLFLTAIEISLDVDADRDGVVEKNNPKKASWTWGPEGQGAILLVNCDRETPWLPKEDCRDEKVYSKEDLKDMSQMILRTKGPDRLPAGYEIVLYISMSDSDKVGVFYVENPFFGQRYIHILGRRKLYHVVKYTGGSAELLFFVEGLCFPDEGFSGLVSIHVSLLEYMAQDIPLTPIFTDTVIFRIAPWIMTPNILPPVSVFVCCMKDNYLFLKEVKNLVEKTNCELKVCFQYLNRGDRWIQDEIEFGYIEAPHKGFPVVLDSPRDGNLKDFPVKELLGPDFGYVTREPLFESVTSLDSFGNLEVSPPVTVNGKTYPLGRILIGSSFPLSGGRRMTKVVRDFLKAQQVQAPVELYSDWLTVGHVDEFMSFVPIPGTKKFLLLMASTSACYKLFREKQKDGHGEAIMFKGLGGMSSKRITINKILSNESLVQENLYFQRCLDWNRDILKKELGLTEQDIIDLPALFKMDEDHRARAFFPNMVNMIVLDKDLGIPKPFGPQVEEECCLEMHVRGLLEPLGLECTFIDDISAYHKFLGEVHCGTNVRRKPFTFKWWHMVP

Structures are written as SMILES.

The target in experiment [1] is T1, PAD1 (Homo sapiens, UniProt Q9ULC6).
T1 sequence (Q9ULC6 1-663): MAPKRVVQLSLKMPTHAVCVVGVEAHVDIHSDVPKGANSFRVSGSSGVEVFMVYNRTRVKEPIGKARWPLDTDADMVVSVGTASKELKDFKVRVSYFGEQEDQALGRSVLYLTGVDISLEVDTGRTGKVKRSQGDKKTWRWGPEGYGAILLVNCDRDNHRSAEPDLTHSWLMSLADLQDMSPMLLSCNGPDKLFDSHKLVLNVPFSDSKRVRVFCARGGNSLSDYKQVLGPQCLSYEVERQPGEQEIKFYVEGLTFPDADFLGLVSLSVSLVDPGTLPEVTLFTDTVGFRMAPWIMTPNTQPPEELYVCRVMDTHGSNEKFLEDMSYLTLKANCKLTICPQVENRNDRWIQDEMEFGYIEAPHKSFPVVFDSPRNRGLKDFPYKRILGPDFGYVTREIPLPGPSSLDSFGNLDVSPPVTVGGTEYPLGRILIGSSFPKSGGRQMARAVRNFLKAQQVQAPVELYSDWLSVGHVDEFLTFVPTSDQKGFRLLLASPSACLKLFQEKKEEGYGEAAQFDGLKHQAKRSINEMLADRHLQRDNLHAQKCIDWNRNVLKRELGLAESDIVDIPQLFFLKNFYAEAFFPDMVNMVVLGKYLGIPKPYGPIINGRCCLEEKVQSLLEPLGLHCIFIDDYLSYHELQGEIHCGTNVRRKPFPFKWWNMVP
As to the kind of experiment: PAD1 inhibition/inactivation, residual activity measured with BAEE.

The target in experiment [2] is PAD2 (Homo sapiens, UniProt Q9Y2J8). As to the kind of experiment: biochemical.
The target of experiment [3] is T2, PAD3 (Homo sapiens, UniProt Q9ULW8).
T2 sequence (Q9ULW8 1-664): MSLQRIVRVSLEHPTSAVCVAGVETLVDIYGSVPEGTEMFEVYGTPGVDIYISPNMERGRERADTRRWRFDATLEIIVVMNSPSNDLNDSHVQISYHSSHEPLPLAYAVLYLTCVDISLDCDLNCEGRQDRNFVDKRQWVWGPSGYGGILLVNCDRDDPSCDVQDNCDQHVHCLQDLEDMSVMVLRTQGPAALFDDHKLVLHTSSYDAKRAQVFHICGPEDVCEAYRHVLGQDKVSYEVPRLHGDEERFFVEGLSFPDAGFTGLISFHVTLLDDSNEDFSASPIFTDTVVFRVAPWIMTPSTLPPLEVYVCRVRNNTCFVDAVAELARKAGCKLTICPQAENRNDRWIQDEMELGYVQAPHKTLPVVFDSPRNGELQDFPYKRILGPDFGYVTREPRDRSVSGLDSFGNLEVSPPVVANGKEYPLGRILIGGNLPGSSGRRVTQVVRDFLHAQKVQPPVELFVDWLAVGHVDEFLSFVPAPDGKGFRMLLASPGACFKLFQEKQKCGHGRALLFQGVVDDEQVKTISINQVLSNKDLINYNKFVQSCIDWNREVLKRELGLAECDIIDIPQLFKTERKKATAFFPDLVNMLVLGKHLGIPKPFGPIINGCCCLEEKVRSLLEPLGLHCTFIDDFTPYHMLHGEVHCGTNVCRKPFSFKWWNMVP
As to the kind of experiment: biochemical.

The term kinact denotes the rate constant of inactivation at saturating inhibitor.

`COC1=C(N)C(=O)c2nc(-c3nc(C(=O)O)c(C)c(-c4ccc(OC)c(OC)c4O)c3N)ccc2C1=O` [NIH6, streptonigrin]: the kinact was 0.000667 s⁻¹ in experiment [1], 0.00333 s⁻¹ in experiment [2] and 0.00333 s⁻¹ in experiment [3].
